Data on two compounds can be found in ChEMBL document CHEMBL3774360, “Potent multitarget FAAH-COX inhibitors: Design and structure-activity relationship studies” (Eur J Med Chem, 2016).

Protein sequences, listed by entry. Tags and fused reporters are not part of them.
UniProt P97612, whole entry: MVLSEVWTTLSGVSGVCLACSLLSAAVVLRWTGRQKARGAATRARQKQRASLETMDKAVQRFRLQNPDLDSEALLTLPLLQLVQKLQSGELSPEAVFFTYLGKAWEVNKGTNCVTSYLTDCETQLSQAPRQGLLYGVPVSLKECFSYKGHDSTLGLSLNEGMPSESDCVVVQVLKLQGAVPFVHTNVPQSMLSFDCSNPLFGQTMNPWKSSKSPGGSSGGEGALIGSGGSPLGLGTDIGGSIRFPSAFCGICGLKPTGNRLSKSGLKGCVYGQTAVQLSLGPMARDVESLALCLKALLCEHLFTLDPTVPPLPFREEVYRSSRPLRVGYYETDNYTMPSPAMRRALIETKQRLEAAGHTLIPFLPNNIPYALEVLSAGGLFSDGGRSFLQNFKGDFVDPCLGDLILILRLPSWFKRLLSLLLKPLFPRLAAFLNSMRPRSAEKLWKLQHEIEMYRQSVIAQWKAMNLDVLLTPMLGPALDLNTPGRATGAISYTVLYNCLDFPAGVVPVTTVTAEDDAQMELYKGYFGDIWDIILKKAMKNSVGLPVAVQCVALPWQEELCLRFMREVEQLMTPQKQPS

For the assay, the target named is Fatty-acid amide hydrolase 1 (Rattus norvegicus, UniProt P97612). Briefly: Inhibition of FAAH in Sprague-Dawley rat brain homogenates preincubated for 10 mins followed by addition of substrate measured after 30 mins by liquid scintillation counting. It is filed as tissue-based.

Take `CCCCCCNC(=O)Oc1cccc(-c2ccc([C@@H](C)C(=O)O)cc2F)c1`: the midpoint of inhibition, the IC50, lay at 9.9 nM.

`CCCCCCNC(=O)Oc1cccc(-c2ccc([C@H](C)C(=O)O)cc2F)c1` returned a half-maximal inhibitory concentration (IC50) of 9.4 nM.

The IC50 is the concentration that gives 50% inhibition. The low end stands for higher potency, the high end for lower potency.
